# AlphaSeq binding of Ab-95 light chain variants to a spike HR2 peptide

Source: Engelhart et al. 2022 (doi:10.1038/s41597-022-01779-4), MIT Lincoln Laboratory and A-Alpha Bio; data file from the FLAb repository.

Antigen: PDVDLGDISGINAS, a 14-residue peptide of the SARS-CoV-2 spike HR2 region.

The variants keep the heavy chain, the linker and the frameworks of Ab-95 (scFv order VH, three GGGGS repeats, VL).
VH: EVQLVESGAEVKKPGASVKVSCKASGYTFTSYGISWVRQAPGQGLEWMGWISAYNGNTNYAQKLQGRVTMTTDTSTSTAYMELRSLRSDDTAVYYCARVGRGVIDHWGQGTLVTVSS
VL: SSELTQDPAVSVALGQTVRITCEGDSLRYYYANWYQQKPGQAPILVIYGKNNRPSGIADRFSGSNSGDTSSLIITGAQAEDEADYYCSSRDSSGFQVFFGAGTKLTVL

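Phage display of a naive human antibody library on the peptide gave the parent. In library AAYL52, one, two or three CDR residues were substituted; doubles and triples were drawn at random. Affinity was read by AlphaSeq, a pooled yeast mating assay with surface-displayed partners. Mating (16 h, 30 °C) was followed by selection of diploids and sequencing of their barcodes. Read counts were normalised to the haploid input and turned into Kd by a linear fit to BCL2-family pairs of known affinity, for each replicate. There are three technical replicates.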

Changes read parent residue, position, new residue, counted from the first residue of the VL shown. Affinities are written as log10 Kd with Kd in nM; a lower number is a better binder. Replicates are averaged; those with no signal do not enter the mean. Where no diploid with the target was found in that replicate, the entry reads "ND": below detection, most likely a poor binder, though not proof of it. Parent in this assay: reference entry 2.31, copy in this library 2.25. Three control strains display no target. For library AAYL52, 28% of the pairings with them gave a signal, with a median of 3.91 and one signal in twenty below 2.90, so weak values seen in few replicates may be background. The control count says in how many pairings with the empty strains this scFv gave a signal, with their mean in brackets.

| # | changes | log10 Kd (nM) by replicate | log10 Kd (nM), mean | empty controls |
|---|---|---|---|---|
| 1 | Y31E/S88L/F98D | 1.12 1.45 0.62 | 1.07 | 5 of 9 (4.36) |
| 2 | Y31V/K50Y/F98A | ND 3.37 3.30 | 3.33 | 1 of 9 (3.43) |
| 3 | S26N/K50H/F98R | 2.96 ND 2.60 | 2.78 | 6 of 9 (4.02) |
| 4 | Y29F/S55E/D91W | 2.61 2.36 2.17 | 2.38 | 1 of 9 (3.25) |
| 5 | D25P/G49V/N52C | 2.67 2.31 2.53 | 2.50 | 4 of 9 (3.68) |
| 6 | K50R/P54F/G94P | 3.52 3.74 4.19 | 3.82 | 5 of 9 (3.74) |
| 7 | N52H/P54I/S55I | ND ND 3.28 | 3.28 | 1 of 9 (4.07) |
| 8 | G49Q/R53F/D91R | ND 3.90 2.58 | 3.24 | 1 of 9 (3.74) |
| 9 | K50H/P54Y | 2.60 2.66 3.24 | 2.83 | 3 of 9 (4.12) |
| 10 | E23V/R28N/G49T | 3.20 4.37 3.36 | 3.65 | 2 of 9 (4.80) |
| 11 | G24R/S26W/S88Y | 4.69 ND ND | 4.69 | 3 of 9 (4.00) |
| 12 | R90V/G94W | ND 3.52 ND | 3.52 | 0 of 9 |
| 13 | Y31Q/A32C/D91W | 3.46 2.66 ND | 3.06 | 2 of 9 (4.07) |
| 14 | N33I/F95S/V97M | ND 3.95 ND | 3.95 | 2 of 9 (4.01) |
| 15 | D25F/A32N/V97R | ND ND ND | ND | 1 of 9 (3.61) |
| 16 | G24K/N33Q | 2.38 2.00 2.13 | 2.17 | 0 of 9 |
| 17 | A32W/G94H/F95V | ND ND ND | ND | 4 of 9 (4.07) |
| 18 | K50S/Q96R/F98R | 3.74 3.60 3.12 | 3.49 | 1 of 9 (5.24) |
| 19 | Y31H/S88Y/G94F | 1.74 1.66 1.69 | 1.70 | 3 of 9 (3.96) |
| 20 | G49C/V97Y | ND ND 2.83 | 2.83 | 1 of 9 (3.39) |
| 21 | Y29I/K50F/S92Y | 2.74 ND 4.03 | 3.38 | 3 of 9 (3.71) |
| 22 | G24C/D25E/R90I | 3.61 3.20 2.67 | 3.16 | 3 of 9 (3.80) |
| 23 | G49L/S55P/F98W | ND 2.51 ND | 2.51 | 1 of 9 (2.54) |
| 24 | Y31A/K50I/S89L | 2.84 2.16 1.87 | 2.29 | 1 of 9 (3.83) |
| 25 | S55A/S88I/F95I | 2.80 1.95 2.95 | 2.57 | 4 of 9 (3.21) |
| 26 | Y29A/Y30W/R90W | 4.77 2.87 3.41 | 3.69 | 3 of 9 (3.65) |
| 27 | R53L/S93A/G94R | 4.23 4.00 ND | 4.12 | 5 of 9 (3.65) |
| 28 | A32Y/K50N/S55C | 2.61 2.87 2.15 | 2.54 | 0 of 9 |
| 29 | S89E/S93V/F98R | 2.13 2.23 2.03 | 2.13 | 1 of 9 (2.95) |
| 30 | G49A/D91E/Q96T | 4.74 ND 3.71 | 4.22 | 2 of 9 (3.48) |
| 31 | E23D/D25Y/L27A | 4.21 3.24 ND | 3.73 | 4 of 9 (3.63) |

The 3 strongest on average among those seen in every replicate, once more:

| changes | log10 Kd (nM) by replicate | log10 Kd (nM), mean | empty controls |
|---|---|---|---|
| Y31E/S88L/F98D | 1.12 1.45 0.62 | 1.07 | 5 of 9 (4.36) |
| Y31H/S88Y/G94F | 1.74 1.66 1.69 | 1.70 | 3 of 9 (3.96) |
| S89E/S93V/F98R | 2.13 2.23 2.03 | 2.13 | 1 of 9 (2.95) |